Drawing on ChEMBL document CHEMBL5728091, “3-((hetero-)aryl)-alkyl-8-amino-2-oxo-l,3-diaza-spiro-[4.5]-decane derivatives” (2020), this text covers Ki for 23 molecules.

Chains of the proteins cited; added tags and fusions are not shown. Lines headed by an entry give the natural chain unless they say otherwise; changes in a name come on top.
UniProt P35372, whole entry, looked up: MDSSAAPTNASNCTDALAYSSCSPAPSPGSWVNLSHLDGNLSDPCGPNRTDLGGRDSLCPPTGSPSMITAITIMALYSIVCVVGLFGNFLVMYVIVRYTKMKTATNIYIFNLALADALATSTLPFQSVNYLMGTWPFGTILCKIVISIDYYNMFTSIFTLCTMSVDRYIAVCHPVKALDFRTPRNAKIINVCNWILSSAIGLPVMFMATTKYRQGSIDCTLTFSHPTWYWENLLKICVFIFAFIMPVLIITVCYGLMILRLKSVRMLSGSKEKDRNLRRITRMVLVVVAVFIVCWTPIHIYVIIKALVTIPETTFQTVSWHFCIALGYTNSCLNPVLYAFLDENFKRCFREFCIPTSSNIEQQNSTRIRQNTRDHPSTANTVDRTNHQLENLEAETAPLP
UniProt P41146: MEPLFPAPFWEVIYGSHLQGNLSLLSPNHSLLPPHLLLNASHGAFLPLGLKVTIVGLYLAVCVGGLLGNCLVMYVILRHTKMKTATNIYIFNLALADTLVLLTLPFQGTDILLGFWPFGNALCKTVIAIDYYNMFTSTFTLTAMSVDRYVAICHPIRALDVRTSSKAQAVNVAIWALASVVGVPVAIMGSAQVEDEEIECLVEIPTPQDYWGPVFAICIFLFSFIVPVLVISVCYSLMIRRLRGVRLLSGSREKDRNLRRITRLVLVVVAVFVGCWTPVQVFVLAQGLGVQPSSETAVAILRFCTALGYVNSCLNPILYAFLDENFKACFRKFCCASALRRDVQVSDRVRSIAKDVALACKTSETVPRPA

The target in one test is Mu-type opioid receptor (Homo sapiens, UniProt P35372). Nature of the test: Receptor Binding Assay: Mu-Opioid Peptide (hMOP): The hMOP receptor binding assay was performed as homogeneous SPA-assay (scintillation proximity assay) using the assay buffer 50 mM TRIS-HCl (pH 7.4) supplemented with 0.052 mg/ml bovine serum albumin (Sigma-Aldrich Co. St. Louis. Mo.). The final assay volume (250 μl/well) included 1 nM of [N-allyl-2.3-3H]naloxone as ligand (PerkinElmer Life Scienc.

The next test deals with Nociceptin receptor (Homo sapiens, UniProt P41146). The test is described as follows: Receptor Binding Assay: The hNOP receptor binding assay was performed as homogeneous SPA-assay (scintillation proximity assay) using the assay buffer 50 mM TRIS-HCl. 10 mM MgCl2. 1 mM EDTA (pH 7.4). The final assay volume (250 ul/well) included 0.5 nM of [leucyl-3H]nociceptin as ligand (PerkinElmer Life Sciences. Inc. Boston. Mass. USA). and either test compound in dilution series or 1 uM unlabell. (In general: SPA uses beads or plates that emit light when radiolabelled molecules are held near them.)

Structures are written as SMILES.

Consider `COc1ccc(CN2C[C@]3(CC[C@](c4cccc(F)c4)(N(C)C)CC3)NC2=O)cc1`, for which the values for the Ki at Mu-type opioid receptor and on Nociceptin receptor were 80 nM and 5460 nM, respectively.
Taken in the same sequence, the figures for `COc1ccc(CN2C[C@]3(CC[C@](c4ccccc4)(N(C)C)CC3)N(C[C@@H](C)O)C2=O)cc1` were 195 nM and 995 nM.
For the molecule `COc1ccc(CN2C[C@]3(CC[C@](c4cccc(O)c4)(N(C)C)CC3)N(CC3CCC3)C2=O)cc1`, the Ki (as a rule, the dissociation constant of the complex between target and ligand, obtained from inhibition or displacement) came to 70.8 nM at Mu-type opioid receptor and 66.8 nM on Nociceptin receptor.
Turning to `CCCN1C(=O)N(Cc2ccc(OC)cc2)C[C@]12CC[C@](c1ccccc1)(N(C)C)CC2`, the Ki at Mu-type opioid receptor turned out to be 11.2 nM; at Nociceptin receptor, 575 nM.
Taken in the same sequence, the figures for `CN[C@]1(c2ccccc2)CC[C@]2(CC1)CN(Cc1cccnc1)C(=O)N2CC1CCC1` were 4.6 nM and 140 nM.
Consider `CCCN(C)C(=O)CN1C(=O)N(Cc2ccc(OC)cc2)C[C@]12CC[C@](c1ccccc1)(N(C)C)CC2`, for which the Ki was determined as 27 nM on Mu-type opioid receptor and 650 nM on Nociceptin receptor.
On the same counts, the results for `COCCCCN1C(=O)N(Cc2ccc(OC)cc2)C[C@]12CC[C@](c1ccccc1)(N(C)C)CC2` are 34.5 nM and 230 nM.
Taken in the same sequence, the figures for `COc1ccc(CN2C[C@]3(CC[C@](c4ccccc4)(N(C)C)CC3)N(CC(=O)N(C)C)C2=O)cc1` were 18 nM and 3430 nM.
On to `CNC(=O)CN1C(=O)N(Cc2ccc(OC)cc2)C[C@]12CC[C@](c1ccccc1)(N(C)C)CC2`, for which the values for the Ki on Mu-type opioid receptor and at Nociceptin receptor were 390 nM and 3430 nM, respectively.
As to `COc1ccc(CN2C[C@]3(CC[C@](c4ccccc4)(N(C)C)CC3)N(CC3(F)CCC3)C2=O)cc1`, the Ki at Mu-type opioid receptor is 19.3 nM; at Nociceptin receptor, 710 nM.
Taken in the same sequence, the figures for `COc1ccccc1CN1C[C@]2(CC[C@](c3ccccc3)(N(C)C)CC2)N(Cc2ccc(C#N)cc2)C1=O` were 390 nM and 1050 nM.
On the same counts, the results for `COc1ccccc1CN1C[C@]2(CC[C@](c3ccccc3)(N(C)C)CC2)NC1=O` are 108 nM and 2660 nM.
Take `CN(C)[C@]1(c2ccccc2)CC[C@]2(CC1)CN(Cc1ccccn1)C(=O)N2CC1CCC1`: the Ki amounted to 3.3 nM on Mu-type opioid receptor and 84.5 nM on Nociceptin receptor.
Consider `CN(C)[C@]1(c2ccccc2)CC[C@]2(CC1)CN(Cc1cn(CCO)nn1)C(=O)N2CC1(O)CCC1`, for which the Ki on Mu-type opioid receptor was 22 nM; on Nociceptin receptor, 130 nM.
On the same counts, the results for `COc1ccc(CN2C[C@]3(CC[C@](c4ccccc4)(N(C)C)CC3)N(CCO)C2=O)cc1` are 490 nM and 4020 nM.
On the same counts, the results for `COc1ccc(CN2C[C@]3(CC[C@](c4ccccc4)(N(C)C)CC3)N(Cc3ccncn3)C2=O)cc1` are 215 nM and 5140 nM.
On to `COc1ccc(CN2C[C@]3(CC[C@](c4ccccc4)(N(C)C)CC3)N(CC(C)(C)O)C2=O)cc1`, for which the Ki was determined as 48 nM at Mu-type opioid receptor and 1450 nM on Nociceptin receptor.
Take `CCN(C)[C@]1(c2ccccc2)CC[C@]2(CC1)CN(Cc1cccnc1)C(=O)N2CC1CCC1`: the Ki on Mu-type opioid receptor was 27 nM; at Nociceptin receptor, 855 nM.
As to `CN[C@]1(c2ccccc2)CC[C@]2(CC1)CN(Cc1cn(CCO)nn1)C(=O)N2CC1(O)CCC1`, the results for the Ki at Mu-type opioid receptor and at Nociceptin receptor were 130 nM and 330 nM, respectively.
On the same counts, the results for `COc1ccc(CN2C[C@]3(CC[C@](c4ccccc4)(N(C)C)CC3)N(CC3(O)CCCCC3)C2=O)cc1` are 18.5 nM and 5880 nM.
For `COc1ccc(CN2C[C@]3(CC[C@](c4ccccc4)(N(C)C)CC3)N(CCCCC#N)C2=O)cc1`, the figures for the Ki at Mu-type opioid receptor and at Nociceptin receptor were 40 nM and 860 nM, respectively.
`CN(C)[C@]1(c2ccccc2)CC[C@]2(CC1)CN(CCn1ccnc1)C(=O)N2`: the Ki was 255 nM on Mu-type opioid receptor and 2000 nM at Nociceptin receptor.
Regarding `CCN(C)[C@]1(c2ccccc2)CC[C@]2(CC1)CN(Cc1ccc(OC)cc1)C(=O)N2CC1CCC1`, the Ki at Mu-type opioid receptor turned out to be 106 nM; on Nociceptin receptor it was 3180 nM.
